Test results published in ChEMBL document CHEMBL5143511, “Positioning of an unprecedented 1,5-oxaza spiroquinone scaffold into SMYD2 inhibitors in epigenetic space” (Eur J Med Chem, 2022).

Chains of the proteins cited; added tags and fusions are not shown. Lines headed by an entry give the natural chain unless they say otherwise; changes in a name come on top.
UniProt Q9NRG4: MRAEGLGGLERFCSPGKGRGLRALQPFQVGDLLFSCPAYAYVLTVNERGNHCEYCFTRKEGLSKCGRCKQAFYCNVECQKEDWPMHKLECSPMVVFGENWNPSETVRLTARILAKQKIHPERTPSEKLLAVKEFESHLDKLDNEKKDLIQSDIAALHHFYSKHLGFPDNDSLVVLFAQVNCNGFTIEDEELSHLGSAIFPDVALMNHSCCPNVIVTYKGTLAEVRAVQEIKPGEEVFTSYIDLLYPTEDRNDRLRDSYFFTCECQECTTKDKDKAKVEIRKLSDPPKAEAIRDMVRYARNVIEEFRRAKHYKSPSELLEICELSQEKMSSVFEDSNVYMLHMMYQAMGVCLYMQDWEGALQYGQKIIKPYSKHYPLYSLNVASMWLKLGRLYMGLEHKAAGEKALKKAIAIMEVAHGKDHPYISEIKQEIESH

Molecular target: N-lysine methyltransferase SMYD2 (Homo sapiens, UniProt Q9NRG4)
Assay: Inhibition of SMYD2 (unknown origin) using 3H-SAM as substrate incubated for 1 hr by filter binding method

**Q.** `CCN(C(=O)CO)C1CN(/C(=N\C#N)Nc2cccc(OC(F)F)c2)N=C1c1ccc(Cl)c(Cl)c1` (stereo unspecified) was tested. Which IC50 did it give?
**A.** The IC50 was 27 nM.
